These results are taken from US10512644B2, “Oligomer-opioid agonist conjugates” (Nektar Therapeutics, priority 2007, dated 2019).

The target in data set [1] is cloned human kappa opioid receptor (Homo sapiens (Human), UniProt P41145). Nature of the data set: cell-based. The settings on record: CHO, read-out: KAPPA OPIOID RECEPTOR % max effect.
Data set [2] in a line: Plasma pharmacokinetics after intravenous dosing in male Sprague-Dawley rats. The settings on record: IV 1 mg/kg, PEGylated hydroxycodone.

Take `COc1ccc2c3c1O[C@H]1[C@@H](O)C=C[C@H]4[C@@H](C2)N(C)CC[C@@]341` [Codeine, codeine]: in data set [1], the Emax was 3%. With `COCCOCCOCCO[C@H]1CC[C@@]2(O)[C@H]3Cc4ccc(OC)c5c4[C@@]2(CCN3C)[C@H]1O5` [α-6-mPEG3-O-Hydroxycodone, α-6-mPEG3-O-hydroxycodone], the “mean exposure (AUC) as compared to oxycodone” value in data set [2] was “higher mean exposure”. Regarding `COCCOCCOCCOCCOCCO[C@H]1CC[C@@]2(O)[C@H]3Cc4ccc(OC)c5c4[C@@]2(CCN3C)[C@H]1O5` [α-6-mPEG5-O-Hydroxycodone, α-6-mPEG5-O-hydroxycodone], the “mean exposure (AUC) as compared to oxycodone” value in data set [2] is reported as “higher mean exposure”. As to `COCCOCCOCCOCCOCCOCCOCCOCCOCCO[C@H]1CC[C@@]2(O)[C@H]3Cc4ccc(OC)c5c4[C@@]2(CCN3C)[C@H]1O5` [α-6-mPEG9-O-Hydroxycodone, α-6-mPEG9-O-hydroxycodone], in data set [2], the “mean exposure (AUC) as compared to oxycodone” value is “higher mean exposure”.
